{"source": "paper PMC8997437", "about": "“Apelin Resistance Contributes to Muscle Loss during Cancer Cachexia in Mice” (Cancers, 2022)", "key": {"APJ": {"molecular_target": "T1, APJ (Mus musculus, UniProt Q9WV08)", "T1 construct": "we transfected myoblasts with a reporter plasmid with the gene for FLuc under the control of cAMP-responsive elements (CRE); endogenous in cells; host or cells: myoblasts (C2C12 according to the luciferase-assay methods)", "T1 sequence (Q9WV08 1-377)": "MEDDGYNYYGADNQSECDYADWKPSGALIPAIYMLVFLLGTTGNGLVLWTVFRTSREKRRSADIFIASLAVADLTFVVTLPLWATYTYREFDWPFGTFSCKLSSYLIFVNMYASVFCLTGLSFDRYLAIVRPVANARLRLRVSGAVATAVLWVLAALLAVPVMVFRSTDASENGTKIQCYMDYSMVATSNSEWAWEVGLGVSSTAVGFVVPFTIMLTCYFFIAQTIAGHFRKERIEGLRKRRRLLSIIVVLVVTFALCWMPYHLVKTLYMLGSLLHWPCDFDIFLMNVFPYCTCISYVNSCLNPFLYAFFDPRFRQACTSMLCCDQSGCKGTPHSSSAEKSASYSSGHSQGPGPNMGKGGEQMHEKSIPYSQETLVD", "assay": "CRE-luciferase (cAMP) reporter assay in transfected myoblasts, apelin peptides", "type": "cell-based", "conditions": "1 μM peptide for 5 h, with vehicle or 50 μM forskolin, n = 6"}, "[1]": {"conditions": "[Pyr1]-apelin 13 (L version), 0.5 µg/µL in mouse serum, 37 °C, samples extracted with acetonitrile/3% TFA, MALDI-TOF read-out, compared with time 0"}}}
{"substance": "[Pyr1]-Apelin 13 [L-apelin 13]", "values": [{"measurement": "reduction of cAMP and forskolin-induced cAMP (FLuc/RLuc, CRE reporter)", "setting": "APJ", "value": "about 25%"}, {"measurement": "time at which the apelin 13 peaks disappeared in mouse serum (turnover)", "setting": "[1]", "value": 3, "unit": "h"}]}
